In ChEMBL document CHEMBL5042543, “Bridged Piperidine Analogues of a High Affinity Naphthalene-Based P2Y14R Antagonist” (J Med Chem, 2022):

Assay: Aqueous solubility of the compound at pH 4
Details: buffer

O=C(O)c1cc(-c2ccc([C@@]3(O)C[C@H]4CC[C@@H](C3)N4)cc2)c2ccc(-c3ccc(C(F)(F)F)cc3)cc2c1
solubility: 1.83 µg/mL (≈ 3.54 µM)

≈ marks a conversion by molar mass, not a printed value.
